Consider one compound from article PMC6891286, “Towards the Development of an In vivo Chemical Probe for Cyclin G Associated Kinase (GAK)” (Molecules, 2019).

This test addresses T1, GAK (Homo sapiens, UniProt O14976).
T1 sequence (O14976 1-1311): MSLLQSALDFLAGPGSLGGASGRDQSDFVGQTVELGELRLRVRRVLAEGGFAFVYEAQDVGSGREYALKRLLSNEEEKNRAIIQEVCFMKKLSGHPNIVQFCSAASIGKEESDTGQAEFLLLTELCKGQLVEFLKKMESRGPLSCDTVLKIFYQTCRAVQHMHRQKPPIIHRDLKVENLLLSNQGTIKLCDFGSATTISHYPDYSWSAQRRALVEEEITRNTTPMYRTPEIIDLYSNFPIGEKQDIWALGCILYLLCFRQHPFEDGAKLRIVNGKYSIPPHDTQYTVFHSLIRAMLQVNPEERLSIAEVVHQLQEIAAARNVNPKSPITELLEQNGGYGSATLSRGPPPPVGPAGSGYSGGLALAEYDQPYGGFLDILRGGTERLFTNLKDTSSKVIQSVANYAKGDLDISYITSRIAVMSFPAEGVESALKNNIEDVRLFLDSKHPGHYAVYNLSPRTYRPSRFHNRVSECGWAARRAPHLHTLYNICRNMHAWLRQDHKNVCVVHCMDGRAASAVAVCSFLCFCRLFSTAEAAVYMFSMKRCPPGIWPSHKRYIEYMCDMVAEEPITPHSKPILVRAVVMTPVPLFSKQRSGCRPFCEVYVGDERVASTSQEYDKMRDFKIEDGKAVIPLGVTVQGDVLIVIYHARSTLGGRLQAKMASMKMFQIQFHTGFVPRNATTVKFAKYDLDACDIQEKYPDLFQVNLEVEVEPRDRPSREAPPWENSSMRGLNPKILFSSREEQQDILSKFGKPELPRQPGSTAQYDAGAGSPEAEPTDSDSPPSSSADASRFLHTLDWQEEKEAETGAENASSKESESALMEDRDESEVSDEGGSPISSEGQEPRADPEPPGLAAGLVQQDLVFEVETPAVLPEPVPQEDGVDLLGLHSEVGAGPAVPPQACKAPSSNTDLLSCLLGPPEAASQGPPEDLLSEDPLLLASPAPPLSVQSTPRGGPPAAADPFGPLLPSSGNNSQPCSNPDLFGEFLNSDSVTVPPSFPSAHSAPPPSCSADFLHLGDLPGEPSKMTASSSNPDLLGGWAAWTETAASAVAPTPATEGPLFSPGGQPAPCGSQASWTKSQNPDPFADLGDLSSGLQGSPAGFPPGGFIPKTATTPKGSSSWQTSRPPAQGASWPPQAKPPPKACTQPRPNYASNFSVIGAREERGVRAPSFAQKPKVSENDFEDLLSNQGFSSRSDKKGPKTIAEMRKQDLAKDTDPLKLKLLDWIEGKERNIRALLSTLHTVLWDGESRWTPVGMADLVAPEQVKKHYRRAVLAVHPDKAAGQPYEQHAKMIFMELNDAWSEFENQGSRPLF
The test can be described thus: TR-FRET ligand-binding displacement assay. Conditions: NAK family FRET screening.

Each structure is given as a SMILES string.

In the case of `COc1cc(Nc2ccnc3ccc(Br)cc23)cc(OC)c1OC` [Compound 1], the Ki turned out to be 3.1 nM.
